Yeast mating assay 1: variants of the scFv Ab-14

Binding partner: SARS-CoV-2 spike HR2 peptide, sequence PDVDLGDISGINAS.

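Library AAYL50 holds single substitutions and randomly drawn double and triple substitutions in the CDRs. Affinity was read by AlphaSeq, a pooled yeast mating assay with surface-displayed partners. Pairs that bind mate more often; barcode pairs of the diploids are counted by sequencing. Scores were corrected for input abundance and mapped to Kd with protein pairs of known affinity run in the same pool. The assay was run in three technical replicates.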

Ab-14 is the parent antibody, in scFv form: VH, then three GGGGS repeats, then VL. The heavy chain is unchanged in all variants.
VH: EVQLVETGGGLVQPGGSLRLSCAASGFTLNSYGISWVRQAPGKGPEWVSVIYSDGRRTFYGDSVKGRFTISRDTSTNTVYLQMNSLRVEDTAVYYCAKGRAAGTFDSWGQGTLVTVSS
VL: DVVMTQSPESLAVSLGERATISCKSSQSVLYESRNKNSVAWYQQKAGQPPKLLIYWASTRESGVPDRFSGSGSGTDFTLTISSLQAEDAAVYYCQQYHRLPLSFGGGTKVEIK

Substitutions are numbered in sequence along the VL above, starting at 1 (not Kabat). Values are apparent Kd, the geometric mean of the replicates that gave a signal; lower means stronger binding. "no signal" marks a missing value. The strain was present, yet no cells mated with the target were sequenced in any replicate, which points to weak or no binding. For reference, the parent read 4.4 nM as the reference entry and 48 nM as a member of this library.

For S26Y V39R T59D, the assay gave 380 nM (1 of 3 replicates).
For Q27P V29N T59H, the assay gave 98 nM (3 of 3 replicates).
For W56D R60P L102I, the assay gave 3.6 nM (3 of 3 replicates).
For K24R E32Y P101K, the assay gave no signal (0 of 3 replicates).
For Y31T Q96V H98W, the assay gave 5.7 nM (3 of 3 replicates).
For H98F P101S S103Y, the assay gave 5.8 nM (3 of 3 replicates).
For K36T A57G R99I, the assay gave 3.7 µM (3 of 3 replicates).
For S25P Y97D, the assay gave no signal (0 of 3 replicates).
For A40V E61T, the assay gave 210 µM (1 of 3 replicates).
For S26Q E32P R60N, the assay gave no signal (0 of 3 replicates).
For L30F Y31G S38P, the assay gave 11 nM (3 of 3 replicates).
For S28V L30Q Q96L, the assay gave 58 nM (3 of 3 replicates).
For V29H S58M L102M, the assay gave no signal (0 of 3 replicates).
For K36I E61R Q96I, the assay gave 2.6 µM (1 of 3 replicates).
For Q27R Y31R K36M, the assay gave 480 nM (2 of 3 replicates).
For R60V S62R, the assay gave no signal (0 of 3 replicates).
For R34E V39L R60E, the assay gave no signal (0 of 3 replicates).
For S25F N35T Q96D, the assay gave 6.1 nM (3 of 3 replicates).
For E32P S38N T59Q, the assay gave 9.9 nM (3 of 3 replicates).
For S25H Q27S T59E, the assay gave 7.7 nM (3 of 3 replicates).
For S33R K36Y A57H, the assay gave no signal (0 of 3 replicates).
For Y97W R99W L102W, the assay gave 130 µM (2 of 3 replicates).
For N37F Y97S P101Y, the assay gave no signal (0 of 3 replicates).
For K24Y H98F L102R, the assay gave no signal (0 of 3 replicates).
For V29N N35K S38I, the assay gave 12 µM (1 of 3 replicates).
For Q27P A40P P101Y, the assay gave no signal (0 of 3 replicates).
For N35Y E61T L100T, the assay gave no signal (0 of 3 replicates).
For S38R A40V W56C, the assay gave 250 µM (2 of 3 replicates).
For S25V Q95S L102N, the assay gave 9.4 µM (1 of 3 replicates).
For R34P A40W Y97E, the assay gave no signal (0 of 3 replicates).
For S25P Y31R L102M, the assay gave no signal (0 of 3 replicates).
For K24I V29F S103G, the assay gave 53 nM (3 of 3 replicates).
For N37Q S62D S103C, the assay gave 88 nM (3 of 3 replicates).
For Y97C L100N S103W, the assay gave 16 nM (3 of 3 replicates).
For R34E R99Y L100W, the assay gave 2.5 nM (3 of 3 replicates).
For K24T S58R T59K, the assay gave 570 nM (1 of 3 replicates).
For Y31G E32H P101N, the assay gave 25 µM (2 of 3 replicates).
For S25Q S33K E61D, the assay gave 110 nM (3 of 3 replicates).
For S28E E61P L102M, the assay gave 590 nM (2 of 3 replicates).
For S25K Q95E, the assay gave 200 nM (3 of 3 replicates).
For E32T Q95P Y97Q, the assay gave 500 µM (1 of 3 replicates).
For N37D P101D, the assay gave 36 µM (3 of 3 replicates).
For V29H K36E S38T, the assay gave 870 nM (3 of 3 replicates).

Three control strains display no target. For library AAYL50, 18% of the pairings with them gave a signal, with a median of 15 µM and one signal in twenty below 970 nM, so weak values seen in few replicates may be background.

Data: MIT Lincoln Laboratory AlphaSeq set, Engelhart et al. 2022, doi:10.1038/s41597-022-01779-4, as distributed in FLAb.